Source: patent US9744212B2, “Galectin-3C combination therapy for human cancer” (Texas Tech University System, priority 2011, dated 2017)

Columns and labels:
HUVEC = HUVEC chemotaxis (migration) toward U266 conditioned media; format: cell-based, human; settings: U266 treated 48 h with 10 μg/mL Gal-3C, 5 nM Bor or both; 20% conditioned medium; ANOVA, Tukey's post-test
Description: Chemotaxis of HUVEC Cells. Chemotaxis (migration) was analyzed with HUVEC cells as a measure of angiogenic potential as reported (86), using 50×10^3 cells/well and 24-well transwell inserts with 8-μm pores. The lower chamber was filled with 600-μl EGM-2 medium supplemented with 20% V/V conditioned medium, obtained after treatment of U266 cells with 10 μg/mL Gal-3C, 5 nM Bor, or 10 μg/mL Gal-3C with 5 nM Bor for 48 hour, or with 0.6% VN PBS (Gal-3C and Bor vehicle) as a control. As a negative control, EGM-2 medium alone was used. After incubation for 16 h, cells were removed from the upper chamber, and the migrated cells were visualized on the lower side of the filter after fixing and staining with 30% methanol, 10% acetic and 0.1% Coomassie Brilliant Blue. […] The average number of cells in 4 random fields per filter was calculated. The studies were run in triplicate and the results are expressed as a migration index (MI), as follows: MI=number of cells migrated in the presence of conditioned medium/number of cells migrated in the presence of EGM-2 alone. […]
FIG. 3A is a graph of the results from the vascular endothelial cell migration assay. […] Mean migration indexes (left; ±95% C.I.) expressed as the number of cells migrated in the presence of the indicated stimulus divided by the number of cells migrated in the presence of EBM-2 alone. […]

[1] = tested on: U266 MM subcutaneous tumors; assay: U266 subcutaneous tumor model of MM in NOD/SCID mice; format: in vivo; settings: day 35; Gal-3C 30 μg/d/mouse by mini-osmotic pump; Bor six doses of 15 μg via tail vein
Description: Animals: Six-week-old female NOD.CB17-Prkdcscid/J (NOD/SCID) mice were obtained from the Jackson Laboratory (Bar Harbor, Me.). All mice were maintained in filtered-air laminar-flow cabinets under specific pathogen-free conditions. Treatment and care were in accordance with the Institutional Guidelines and the Animal Welfare Assurance Act. All mice were euthanized before they were 10 weeks of age. Testing Gal-3C and Bonin NOD/SCID mouse model of MM: Prior to injection, U266 cells were washed once in Dulbecco's PBS (Sigma-Aldrich), counted, and adjusted to the appropriate density with additional PBS prior to inoculation. […] The primary tumors were measured with a pair of calipers once a week. […] Flow cytometric analysis: The expression of AKAP-4, human IgE, IgG, (heavy chain) k, and A light chains was analyzed by cytofluorimetric techniques as previously described (39). […] Analysis was performed using a fluorescence-activated cell scanner (BD Biosciences). ELISA for human AKAP-4, IgG, E, k, and ? light chain: Blood was collected from each mouse once a week, and an enzyme-linked immunoabsorbent assay (ELISA) was performed on the sera to quantify human AKAP-4, IgG, IgE, k, and ? light chain levels as reported 26. […] Signal intensity was measured on a Victor 2 multimodal microplate reader (PerkinElmer, Mass., USA) at 450 nm. […]

CC(C)C[C@H](NC(=O)[C@H](Cc1ccccc1)NC(=O)c1cnccn1)B(O)O [Bor, bortezomib, reference compound]
migration index compared with controls (HUVEC): no significant difference
average tumor volume relative to that of the untreated controls [1]: 19.6%
